Data: patent USRE47193E1, “Selectively substituted quinoline compounds” (EISAI R&D MANAGEMENT CO., LTD., priority 2013, dated 2019)

Amino acid sequences for entries named in this document (tags omitted). Residues count along the entry.
UniProt Q9NR97, 27-1041 limits assumed: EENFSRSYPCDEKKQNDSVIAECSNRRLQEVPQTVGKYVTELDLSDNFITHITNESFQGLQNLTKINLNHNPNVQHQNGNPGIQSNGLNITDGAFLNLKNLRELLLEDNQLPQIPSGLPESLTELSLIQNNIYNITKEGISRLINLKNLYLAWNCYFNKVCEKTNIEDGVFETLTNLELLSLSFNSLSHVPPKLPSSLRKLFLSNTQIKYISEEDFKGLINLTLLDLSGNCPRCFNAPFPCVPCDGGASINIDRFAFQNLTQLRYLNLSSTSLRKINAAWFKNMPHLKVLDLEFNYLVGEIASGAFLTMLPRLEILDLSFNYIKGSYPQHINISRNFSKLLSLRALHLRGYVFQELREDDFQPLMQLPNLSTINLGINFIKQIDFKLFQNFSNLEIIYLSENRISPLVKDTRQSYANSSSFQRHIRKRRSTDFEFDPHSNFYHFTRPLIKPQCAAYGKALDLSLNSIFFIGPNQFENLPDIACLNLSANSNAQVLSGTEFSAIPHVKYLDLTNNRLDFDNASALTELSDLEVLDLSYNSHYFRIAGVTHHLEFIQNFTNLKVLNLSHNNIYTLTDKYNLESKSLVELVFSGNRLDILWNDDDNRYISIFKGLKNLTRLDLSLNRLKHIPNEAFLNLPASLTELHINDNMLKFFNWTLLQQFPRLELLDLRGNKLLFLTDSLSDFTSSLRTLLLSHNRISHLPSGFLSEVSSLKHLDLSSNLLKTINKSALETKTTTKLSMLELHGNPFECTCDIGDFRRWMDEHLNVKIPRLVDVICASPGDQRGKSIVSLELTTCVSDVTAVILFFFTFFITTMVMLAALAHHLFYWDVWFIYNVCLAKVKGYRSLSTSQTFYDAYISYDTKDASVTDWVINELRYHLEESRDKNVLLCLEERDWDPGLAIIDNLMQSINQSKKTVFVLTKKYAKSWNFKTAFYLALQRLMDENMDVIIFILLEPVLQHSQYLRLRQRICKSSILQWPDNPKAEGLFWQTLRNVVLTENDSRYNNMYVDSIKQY

Key:
Human TLR7/8 = experiment: Human PBMC cell-based assay, TLR7/8 stimulus (RNA-Ig), cytokine ELISA; conditions: read-out: Human PBMCs IC50; primary human PBMC assay, TLR7/8 potency; ligand not given
Protocol: Human PBMC Cell-Based Assay. Human peripheral blood mononuclear cells (PBMC) were isolated from freshly-drawn heparinized (10 USP units/ml, Hospira, Lakeforest, Ill.) healthy donor whole blood by density gradient (Histopaque® 1077, Sigma, Inc., St. Louis, Mo.). Briefly, 25 ml blood was diluted with 15 ml PBS (without Ca^2+, Mg^2+) in a 50 ml conical tube, and 12 ml Histopaque was underlaid using a spinal needle. Tubes were centrifuged for 45 minutes at 1200 rpm (350×g), and PBMC were collected from the buffy coat. Cells were then washed twice in PBS, and red blood cells were lysed by suspension in 5 ml ammonium chloride solution (1× Red Blood Cell Lysis Buffer, eBioscience) for 5 minutes at room temperature. […]
Antagonist compounds solubilized and serial diluted in 100% DMSO were added in triplicate to cells to yield a final concentration of 0.1% DMSO (v/v). […] Cell culture supernatants were collected, and levels of various human cytokines were assessed as indicated by standard ELISA procedure according to the manufacturer's recommended protocol (BD Biosciences, Inc., San Diego, Calif.). […]

human TLR8 = human TLR8 (Homo sapiens, UniProt Q9NR97); experiment: HEK-293 human TLR8 NF-kappaB luciferase reporter assay (CL097); assay type: cell-based; conditions: read-out: HEK/hTLR8 IC50; HEK-293 assay format
Protocol: The comparative potency of ER-899742 versus hydroxychloroquine was further explored using cloned TLR7 and 8 in the HEK 293 cell line as described below in In Vitro Pharmacology. Effects on mouse TLR7 were also compared. Cells were stimulated overnight with TLR7/8 agonist CL097 at pre-determined ED70-80: 3 ug/ml for HEK-hTLR7, 1.5 ug/ml for HEK-mTLR7 and 12 ug/ml for HEK-hTLR8, before reading luminescence intensity. Three tests were performed and IC50 value was determined using Graphpad Prism 6 nonlinear regression curve fit.
HEK-293 cells (ATCC) were engineered to stably express a NF-kappaB transcription factor inducible E-selectin (ELAM-1) luciferase reporter derived from the plasmid pGL3 (Promega) containing base pairs −2241 bp to −254 bp from the promoter of the human E-selectin gene (Accession No. NM_000450). These cells were then subsequently engineered to stably and individually express human TLR4, TLR7 or TLR9 full-length ORF cDNAs. Human TLR4 cDNA (Accession No. NM_138554) was cloned into pcDNA 3.0 expression vector (Invitrogen). TLR4 transfected cells were also engineered to express human MD-2 co-receptor [MD-2 cDNA (Accession No. NM_015364) was cloned into the pEF-BOS vector] and were supplemented with 10 nM soluble CD14 (R&D Systems) in the media to optimize LPS responsiveness. Human TLR9 cDNA (Accession No. NM_017442) was cloned into the pBluescript II KS vector (Agilent). […]

Row | SMILES | IC50 (Human TLR7/8) [µM] | IC50 (human TLR8) [µM]
1 | C[C@@H]1CN(c2ccc(C#N)c3ncccc23)C[C@H](CNc2ccncc2)O1 | 0.005 | 0.008
2 | CCC1CN(c2ccc(C#N)c3ncccc23)CCO1 (stereo not shown) | 0.169 | 0.05
